Earlier results as cited in US4935449A, “N-2,3-butadienyl tri- and tetraaminoalkane derivatives” (Merrell Dow Pharmaceuticals Inc., priority 1988, dated 1990).

System: tissue spermidine content
Details: combined with α-difluoromethylornithine; cited from earlier work

## C=C=CCNCCCCNCC=C=C [N^1,N^4-bis-(2,3-butadienyl)-1,4-butanediamine]
  tissue spermidine content: significant decline in tissue spermidine content
